# Patent US8828401B2, “Cytotoxic peptides and antibody drug conjugates thereof” (Pfizer Inc., priority 2011, dated 2014)
# B1: hu75-vc0101: humanized anti-Notch antibody hu75 conjugated to mcValCitPABC-#54 (conjugate)
# heavy: EVQLVESGGGLVQPGGSLRLSCAASGYAFTDYWMTWVRQAPGKGLEWVAEISPNSGGTNFNEKFKGRFTISVDNAKNSLYLQMNSLRAEDTAVYYCARGEIRYNWFAYWGQGTLVTVSSASTKGPSVFPLAPSSKSTSGGTAALGCLVKDYFPEPVTVSWNSGALTSGVHTFPAVLQSSGLYSLSSVVTVPSSSLGTQTYICNVNHKPSNTKVDKKV[human IgG1 Fc left out]
# light: DIQMTQSPSSLSASVGDRVTITCKASQNVGNNIAWYQQKPGKAPKLLIYYASNRYTGVPSRFSGSGYGTDFTLTISSLQPEDFATYYCQRLYNSPFTFGGGTKVEIKRTVAAPSVFIFPPSDEQLKSGTASVVCLLNNFYPREAKVQWKVDNALQSGNSQESVTEQDSKDSTYSLSSTLTLSKADYEKHKVYACEVTHQGLSSPVTKSFNRGEC
# B2: hu75-vc6780 (conjugate)
# heavy: EVQLVESGGGLVQPGGSLRLSCAASGYAFTDYWMTWVRQAPGKGLEWVAEISPNSGGTNFNEKFKGRFTISVDNAKNSLYLQMNSLRAEDTAVYYCARGEIRYNWFAYWGQGTLVTVSSASTKGPSVFPLAPSSKSTSGGTAALGCLVKDYFPEPVTVSWNSGALTSGVHTFPAVLQSSGLYSLSSVVTVPSSSLGTQTYICNVNHKPSNTKVDKKV[human IgG1 Fc left out]
# light: DIQMTQSPSSLSASVGDRVTITCKASQNVGNNIAWYQQKPGKAPKLLIYYASNRYTGVPSRFSGSGYGTDFTLTISSLQPEDFATYYCQRLYNSPFTFGGGTKVEIKRTVAAPSVFIFPPSDEQLKSGTASVVCLLNNFYPREAKVQWKVDNALQSGNSQESVTEQDSKDSTYSLSSTLTLSKADYEKHKVYACEVTHQGLSSPVTKSFNRGEC
# Key:
# [1] = tested on: 37622A1 NSCLC xenografts; assay: 37622A1 NSCLC patient-derived xenografts with anti-Notch ADCs; assay type: in vivo, nude (Nu/Nu) female mice; settings: for effect on growth of 37622A1 NSCLC xenografts (in words): Q4dx4, doses of Table 11
# Description: Humanized anti-Notch antibodies, hu28 and hu75, and rat-human chimeric anti-Notch antibodies, ch28 and ch75, were conjugated to various linker-payload combinations and tested in 37622A1 non-small cell lung cancer (NSCLC), HCC2429 lung cancer, MDA-MB-468 breast cancer and N87 gastric cancer xenograft models. For each model described below the first dose was given on Day 0. The tumors were measured at least once a week and their volume was calculated with the formula: tumor volume (mm^3)=0.5×(tumor width^2)(tumor length). The mean tumor volumes (±S.E.M.) for each treatment group were calculated having a maximum of 10 animals and a minimum of 6 animals to be included.
# The effects of anti-Notch ADCs were examined in immunodeficient mice on the in vivo growth of human tumor xenografts that were established from fragments of freshly resected 37622A1 NSCLC tumors obtained in accordance with appropriate consent procedures (Asterand). The 37622A1 NSCLC patient-derived xenografts were subcutaneously passaged in vivo as fragments from animal to animal in nude (Nu/Nu) female mice. When the tumors reached a volume of 150 to 300 mm^3, they were staged to ensure uniformity of the tumor size among various treatment groups. The 37622A1 NSCLC model was dosed intraveneously four times every four days (Q4dx4) with PBS vehicle, humanized anti-Notch ADCs, control huNeg-8.8 ADCs and cisplatin at the doses provided in Table 11.
# [2] = tested on: OVCAR3 (ovarian cancer); assay: In vitro cytotoxicity assay with anti-Notch ADCs (MTS); assay type: cell-based
# Description: (§1) The effects of anti-Notch ADCs were assessed on 1) cell lines endogenously expressing Notch protein: HCC2429 (lung cancer), OVCAR3 (ovarian cancer) and MDA-MB-468 (breast cancer), 2) cell lines engineered to over-express Notch protein: MDA-MB-468/hNotch and U2OS/hNotch, and 3) a negative control cell line (SW900) using an MTS cellular viability indicator (Promega, Madison, Wis.). These cell lines were cultured with increasing concentrations of anti-Notch ADCs comprising humanized anti-Notch antibodies, hu28 and hu75, and rat-human chimeric anti-Notch antibodies, ch28 and ch75, conjugated to various linker-payload combinations of the present invention. As a specificity control for the anti-Notch-ADCs, non-targeted control-ADCs (huNeg8.8-ADCs or ch2H6-ADCs) were also tested on the same cell lines. After four days, viability of each culture was assessed. IC50 values were calculated by logistic non-linear regression and presented as ng Ab/mL. The drug antibody ratio (DAR) is also provided.
# [3] = tested on: U2OS/hNotch; assay: as above; assay type: cell-based
# Description: as §1
# [4] = tested on: MDA-MB-468 (breast cancer); assay: as above; assay type: cell-based
# Description: as §1
# [5] = tested on: HCC2429 (lung cancer); assay: as above; assay type: cell-based
# Description: as §1
# [6] = tested on: MDA-MB-468/hNotch; assay: as above; assay type: cell-based
# Description: as §1
# [7] = first of two individual repeats
# [8] = second of two individual repeats
molecule,measurement,setting,value
B1,tumor volume (mm^3 ± SEM),"[1]; 3 mg/kg Q4dx4, DAY 4",200 ± 16 mm^3
same,tumor volume (mm^3 ± SEM),"[1]; 3 mg/kg Q4dx4, DAY 7",227 ± 16 mm^3
same,tumor volume (mm^3 ± SEM),"[1]; 3 mg/kg Q4dx4, DAY 11",175 ± 20 mm^3
same,tumor volume (mm^3 ± SEM),"[1]; 3 mg/kg Q4dx4, DAY 14",156 ± 19 mm^3
same,tumor volume (mm^3 ± SEM),"[1]; 3 mg/kg Q4dx4, DAY 18",112 ± 16 mm^3
same,tumor volume (mm^3 ± SEM),"[1]; 3 mg/kg Q4dx4, DAY 21",122 ± 27 mm^3
same,tumor volume (mm^3 ± SEM),"[1]; 3 mg/kg Q4dx4, DAY 25",137 ± 33 mm^3
same,tumor volume (mm^3 ± SEM),"[1]; 3 mg/kg Q4dx4, DAY 28",161 ± 53 mm^3
same,tumor volume (mm^3 ± SEM),"[1]; 3 mg/kg Q4dx4, DAY 32",175 ± 52 mm^3
same,tumor volume (mm^3 ± SEM),"[1]; 3 mg/kg Q4dx4, DAY 35",271 ± 79 mm^3
same,tumor volume (mm^3 ± SEM),"[1]; 3 mg/kg Q4dx4, DAY 39",319 ± 103 mm^3
same,tumor volume (mm^3 ± SEM),"[1]; 3 mg/kg Q4dx4, DAY 42",357 ± 113 mm^3
same,tumor volume (mm^3 ± SEM),"[1]; 3 mg/kg Q4dx4, DAY 46",431 ± 137 mm^3
same,tumor volume (mm^3 ± SEM),"[1]; 3 mg/kg Q4dx4, DAY 49",519 ± 135 mm^3
same,tumor volume (mm^3 ± SEM),"[1]; 3 mg/kg Q4dx4, DAY 53",678 ± 195 mm^3
same,tumor volume (mm^3 ± SEM),"[1]; 3 mg/kg Q4dx4, DAY 56",818 ± 251 mm^3
same,tumor volume (mm^3 ± SEM),"[1]; 3 mg/kg Q4dx4, DAY 60",710 ± 162 mm^3
same,tumor volume (mm^3 ± SEM),"[1]; 3 mg/kg Q4dx4, DAY 63",824 ± 191 mm^3
same,tumor volume (mm^3 ± SEM),"[1]; 3 mg/kg Q4dx4, DAY 67",938 ± 202 mm^3
same,tumor volume (mm^3 ± SEM),"[1]; 3 mg/kg Q4dx4, DAY 70",953 ± 209 mm^3
same,tumor volume (mm^3 ± SEM),"[1]; 3 mg/kg Q4dx4, DAY −1",185 ± 17 mm^3
same,effect on growth of 37622A1 NSCLC xenografts (in words),[1],inhibited growth of 37622A1 NSCLC xenografts
same,IC50 (ng Ab/mL),[2],515 ng Ab/mL
same,IC50 (ng Ab/mL),[3],523 ng Ab/mL
same,IC50 (ng Ab/mL),[4],7001 ng Ab/mL
same,IC50 (ng Ab/mL),[5]; [7],611 ng Ab/mL
same,IC50 (ng Ab/mL),[5]; [8],3295 ng Ab/mL
same,IC50 (ng Ab/mL),[6]; [7],37 ng Ab/mL
same,IC50 (ng Ab/mL),[6]; [8],36 ng Ab/mL
B2,tumor volume (mm^3 ± SEM),"[1]; 10 mg/kg Q4dx4, DAY 4",205 ± 23 mm^3
same,tumor volume (mm^3 ± SEM),"[1]; 10 mg/kg Q4dx4, DAY 7",195 ± 22 mm^3
same,tumor volume (mm^3 ± SEM),"[1]; 10 mg/kg Q4dx4, DAY 11",147 ± 23 mm^3
same,tumor volume (mm^3 ± SEM),"[1]; 10 mg/kg Q4dx4, DAY 14",118 ± 18 mm^3
same,tumor volume (mm^3 ± SEM),"[1]; 10 mg/kg Q4dx4, DAY 18",93 ± 14 mm^3
same,tumor volume (mm^3 ± SEM),"[1]; 10 mg/kg Q4dx4, DAY 21",98 ± 20 mm^3
same,tumor volume (mm^3 ± SEM),"[1]; 10 mg/kg Q4dx4, DAY 25",93 ± 24 mm^3
same,tumor volume (mm^3 ± SEM),"[1]; 10 mg/kg Q4dx4, DAY 28",99 ± 26 mm^3
same,tumor volume (mm^3 ± SEM),"[1]; 10 mg/kg Q4dx4, DAY 32",165 ± 45 mm^3
same,tumor volume (mm^3 ± SEM),"[1]; 10 mg/kg Q4dx4, DAY 35",229 ± 59 mm^3
same,tumor volume (mm^3 ± SEM),"[1]; 10 mg/kg Q4dx4, DAY 39",294 ± 78 mm^3
same,tumor volume (mm^3 ± SEM),"[1]; 10 mg/kg Q4dx4, DAY 42",318 ± 71 mm^3
same,tumor volume (mm^3 ± SEM),"[1]; 10 mg/kg Q4dx4, DAY 46",412 ± 106 mm^3
same,tumor volume (mm^3 ± SEM),"[1]; 10 mg/kg Q4dx4, DAY 49",521 ± 132 mm^3
same,tumor volume (mm^3 ± SEM),"[1]; 10 mg/kg Q4dx4, DAY 53",629 ± 162 mm^3
same,tumor volume (mm^3 ± SEM),"[1]; 10 mg/kg Q4dx4, DAY 56",808 ± 196 mm^3
same,tumor volume (mm^3 ± SEM),"[1]; 10 mg/kg Q4dx4, DAY 60",917 ± 209 mm^3
same,tumor volume (mm^3 ± SEM),"[1]; 10 mg/kg Q4dx4, DAY 63",917 ± 147 mm^3
same,tumor volume (mm^3 ± SEM),"[1]; 10 mg/kg Q4dx4, DAY 67",1116 ± 173 mm^3
same,tumor volume (mm^3 ± SEM),"[1]; 10 mg/kg Q4dx4, DAY 70",1181 ± 203 mm^3
same,tumor volume (mm^3 ± SEM),"[1]; 10 mg/kg Q4dx4, DAY −1",183 ± 17 mm^3
same,effect on growth of 37622A1 NSCLC xenografts (in words),[1],inhibited growth of 37622A1 NSCLC xenografts
same,IC50 (ng Ab/mL),[2],254 ng Ab/mL
same,IC50 (ng Ab/mL),[5]; [7],214 ng Ab/mL
same,IC50 (ng Ab/mL),[5]; [8],630 ng Ab/mL
same,IC50 (ng Ab/mL),[6]; [7],26 ng Ab/mL
same,IC50 (ng Ab/mL),[6]; [8],25 ng Ab/mL
